Data as given in publication PMC10009755, “Discovery and Characterization of BAY-805, a Potent and Selective Inhibitor of Ubiquitin-Specific Protease USP21” (Journal of Medicinal Chemistry, 2023).

Chains of the proteins cited; added tags and fusions are not shown. Lines headed by an entry give the natural chain unless they say otherwise; changes in a name come on top. Residues count along the entry.
UniProt Q99986: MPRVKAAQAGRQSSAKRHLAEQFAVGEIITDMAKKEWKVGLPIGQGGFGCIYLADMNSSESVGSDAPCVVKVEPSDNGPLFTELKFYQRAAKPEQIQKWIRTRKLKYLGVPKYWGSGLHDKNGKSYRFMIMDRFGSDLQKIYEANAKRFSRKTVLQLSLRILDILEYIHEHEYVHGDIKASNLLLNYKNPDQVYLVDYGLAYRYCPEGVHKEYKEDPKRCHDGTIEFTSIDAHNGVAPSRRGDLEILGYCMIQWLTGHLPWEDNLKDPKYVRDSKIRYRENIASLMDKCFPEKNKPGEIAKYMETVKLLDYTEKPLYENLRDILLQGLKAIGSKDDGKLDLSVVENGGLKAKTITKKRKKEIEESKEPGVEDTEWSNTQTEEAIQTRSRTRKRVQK
UniProt O60674: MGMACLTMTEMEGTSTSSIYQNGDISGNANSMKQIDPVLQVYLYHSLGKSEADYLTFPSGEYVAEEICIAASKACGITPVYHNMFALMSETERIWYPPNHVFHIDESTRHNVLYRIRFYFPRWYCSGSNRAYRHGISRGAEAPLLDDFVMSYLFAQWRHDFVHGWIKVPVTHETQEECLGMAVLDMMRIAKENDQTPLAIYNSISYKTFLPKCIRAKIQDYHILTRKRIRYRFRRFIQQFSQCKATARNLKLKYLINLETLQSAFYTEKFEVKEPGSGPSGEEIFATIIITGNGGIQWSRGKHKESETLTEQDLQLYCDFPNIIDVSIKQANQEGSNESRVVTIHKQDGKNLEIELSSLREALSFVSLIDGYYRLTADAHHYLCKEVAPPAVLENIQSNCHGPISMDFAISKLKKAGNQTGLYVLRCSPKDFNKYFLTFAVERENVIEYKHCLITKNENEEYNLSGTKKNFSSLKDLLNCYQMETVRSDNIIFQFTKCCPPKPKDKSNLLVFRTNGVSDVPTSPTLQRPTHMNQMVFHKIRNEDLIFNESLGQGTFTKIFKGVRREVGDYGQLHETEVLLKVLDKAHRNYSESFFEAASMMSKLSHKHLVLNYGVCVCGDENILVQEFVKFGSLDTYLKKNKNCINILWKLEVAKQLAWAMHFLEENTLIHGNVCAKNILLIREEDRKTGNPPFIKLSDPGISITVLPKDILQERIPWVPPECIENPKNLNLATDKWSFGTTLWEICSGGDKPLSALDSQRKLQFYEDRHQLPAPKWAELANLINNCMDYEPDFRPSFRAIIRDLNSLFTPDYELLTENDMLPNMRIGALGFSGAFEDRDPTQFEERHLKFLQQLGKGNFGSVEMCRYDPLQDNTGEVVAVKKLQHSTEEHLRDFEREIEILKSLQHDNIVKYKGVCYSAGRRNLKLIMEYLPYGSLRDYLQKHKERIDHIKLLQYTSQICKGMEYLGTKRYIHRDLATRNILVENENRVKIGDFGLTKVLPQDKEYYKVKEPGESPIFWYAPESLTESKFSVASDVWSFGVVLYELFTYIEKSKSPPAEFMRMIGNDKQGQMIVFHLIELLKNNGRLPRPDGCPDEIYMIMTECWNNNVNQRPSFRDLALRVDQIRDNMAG
UniProt P20794: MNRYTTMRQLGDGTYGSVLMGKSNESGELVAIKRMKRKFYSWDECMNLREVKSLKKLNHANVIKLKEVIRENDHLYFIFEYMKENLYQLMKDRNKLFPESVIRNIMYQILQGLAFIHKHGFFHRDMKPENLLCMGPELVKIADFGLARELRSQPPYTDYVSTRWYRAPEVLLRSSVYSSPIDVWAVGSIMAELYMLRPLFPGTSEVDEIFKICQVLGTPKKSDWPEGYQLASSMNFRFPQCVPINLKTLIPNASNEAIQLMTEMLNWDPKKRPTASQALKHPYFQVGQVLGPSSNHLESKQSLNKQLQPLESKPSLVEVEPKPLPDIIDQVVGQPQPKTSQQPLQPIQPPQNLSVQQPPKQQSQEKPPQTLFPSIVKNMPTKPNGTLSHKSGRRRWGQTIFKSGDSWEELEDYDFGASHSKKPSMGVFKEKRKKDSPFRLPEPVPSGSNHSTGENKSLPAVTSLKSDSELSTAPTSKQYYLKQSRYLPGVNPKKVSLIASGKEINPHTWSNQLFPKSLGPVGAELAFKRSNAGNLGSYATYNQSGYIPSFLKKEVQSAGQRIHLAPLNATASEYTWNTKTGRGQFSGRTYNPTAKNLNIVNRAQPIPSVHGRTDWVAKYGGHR
UniProt Q7KZI7, 1-725 isoform Q7KZI7-4: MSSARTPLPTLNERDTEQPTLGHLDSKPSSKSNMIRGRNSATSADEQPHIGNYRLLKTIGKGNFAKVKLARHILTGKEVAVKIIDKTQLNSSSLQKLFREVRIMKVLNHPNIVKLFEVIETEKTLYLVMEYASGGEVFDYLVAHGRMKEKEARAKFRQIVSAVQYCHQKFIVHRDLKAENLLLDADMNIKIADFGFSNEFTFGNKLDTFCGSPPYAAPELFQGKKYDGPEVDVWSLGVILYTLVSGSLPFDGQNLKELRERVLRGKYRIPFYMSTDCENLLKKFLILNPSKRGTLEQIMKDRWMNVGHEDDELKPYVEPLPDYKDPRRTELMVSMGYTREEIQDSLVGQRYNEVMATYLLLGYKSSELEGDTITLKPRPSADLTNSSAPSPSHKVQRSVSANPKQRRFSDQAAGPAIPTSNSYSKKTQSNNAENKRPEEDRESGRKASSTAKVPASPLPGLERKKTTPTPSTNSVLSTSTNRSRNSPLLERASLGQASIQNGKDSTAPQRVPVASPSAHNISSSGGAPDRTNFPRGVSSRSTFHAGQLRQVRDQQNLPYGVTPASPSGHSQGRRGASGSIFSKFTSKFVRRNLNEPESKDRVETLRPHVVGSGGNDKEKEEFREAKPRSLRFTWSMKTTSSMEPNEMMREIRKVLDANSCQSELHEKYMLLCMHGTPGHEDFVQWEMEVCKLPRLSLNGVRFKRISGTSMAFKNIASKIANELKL
UniProt P35916, 25-1363: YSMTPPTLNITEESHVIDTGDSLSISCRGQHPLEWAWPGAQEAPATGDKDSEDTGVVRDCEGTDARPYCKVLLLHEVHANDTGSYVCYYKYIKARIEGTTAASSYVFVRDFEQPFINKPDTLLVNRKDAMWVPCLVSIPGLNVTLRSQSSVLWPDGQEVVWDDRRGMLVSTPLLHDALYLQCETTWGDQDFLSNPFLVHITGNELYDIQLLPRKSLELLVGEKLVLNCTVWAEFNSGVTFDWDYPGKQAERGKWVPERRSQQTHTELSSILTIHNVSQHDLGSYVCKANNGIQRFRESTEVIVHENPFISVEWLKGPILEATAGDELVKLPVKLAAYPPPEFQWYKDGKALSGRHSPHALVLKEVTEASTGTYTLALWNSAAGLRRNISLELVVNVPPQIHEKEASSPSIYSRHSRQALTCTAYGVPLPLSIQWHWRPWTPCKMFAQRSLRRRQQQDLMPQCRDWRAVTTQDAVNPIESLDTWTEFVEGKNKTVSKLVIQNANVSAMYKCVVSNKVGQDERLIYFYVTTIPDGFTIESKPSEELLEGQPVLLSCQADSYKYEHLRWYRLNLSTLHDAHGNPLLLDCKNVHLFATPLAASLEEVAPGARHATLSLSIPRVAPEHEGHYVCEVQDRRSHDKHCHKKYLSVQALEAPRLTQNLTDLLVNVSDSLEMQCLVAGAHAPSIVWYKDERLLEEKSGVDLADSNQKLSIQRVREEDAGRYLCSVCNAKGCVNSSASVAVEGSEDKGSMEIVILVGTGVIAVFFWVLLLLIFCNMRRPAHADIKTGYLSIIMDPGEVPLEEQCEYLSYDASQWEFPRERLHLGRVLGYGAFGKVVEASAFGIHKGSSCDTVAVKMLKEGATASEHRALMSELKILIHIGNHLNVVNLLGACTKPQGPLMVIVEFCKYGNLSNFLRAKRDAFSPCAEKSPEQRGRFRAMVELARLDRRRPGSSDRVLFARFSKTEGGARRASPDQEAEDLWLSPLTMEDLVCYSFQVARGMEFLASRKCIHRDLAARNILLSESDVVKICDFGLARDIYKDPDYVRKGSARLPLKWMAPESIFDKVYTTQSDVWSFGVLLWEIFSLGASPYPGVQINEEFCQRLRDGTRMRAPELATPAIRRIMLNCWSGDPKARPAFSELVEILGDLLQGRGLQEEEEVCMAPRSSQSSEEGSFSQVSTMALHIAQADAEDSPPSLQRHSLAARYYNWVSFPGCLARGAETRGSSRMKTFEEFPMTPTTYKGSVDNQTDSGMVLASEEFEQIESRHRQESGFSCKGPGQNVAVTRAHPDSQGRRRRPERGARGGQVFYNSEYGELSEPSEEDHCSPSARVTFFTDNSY
UniProt Q9UQ07: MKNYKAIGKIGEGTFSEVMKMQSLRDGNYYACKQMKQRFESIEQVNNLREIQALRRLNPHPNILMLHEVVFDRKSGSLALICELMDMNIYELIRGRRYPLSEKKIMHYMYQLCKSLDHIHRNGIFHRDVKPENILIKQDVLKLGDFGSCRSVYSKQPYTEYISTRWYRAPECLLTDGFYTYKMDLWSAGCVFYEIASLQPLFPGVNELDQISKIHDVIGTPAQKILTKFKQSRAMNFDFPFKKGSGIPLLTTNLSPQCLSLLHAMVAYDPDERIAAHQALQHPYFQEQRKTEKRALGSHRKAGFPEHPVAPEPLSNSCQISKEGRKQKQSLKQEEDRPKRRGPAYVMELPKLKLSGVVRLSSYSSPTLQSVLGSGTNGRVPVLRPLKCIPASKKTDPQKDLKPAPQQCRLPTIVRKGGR
UniProt Q04771, 21-509: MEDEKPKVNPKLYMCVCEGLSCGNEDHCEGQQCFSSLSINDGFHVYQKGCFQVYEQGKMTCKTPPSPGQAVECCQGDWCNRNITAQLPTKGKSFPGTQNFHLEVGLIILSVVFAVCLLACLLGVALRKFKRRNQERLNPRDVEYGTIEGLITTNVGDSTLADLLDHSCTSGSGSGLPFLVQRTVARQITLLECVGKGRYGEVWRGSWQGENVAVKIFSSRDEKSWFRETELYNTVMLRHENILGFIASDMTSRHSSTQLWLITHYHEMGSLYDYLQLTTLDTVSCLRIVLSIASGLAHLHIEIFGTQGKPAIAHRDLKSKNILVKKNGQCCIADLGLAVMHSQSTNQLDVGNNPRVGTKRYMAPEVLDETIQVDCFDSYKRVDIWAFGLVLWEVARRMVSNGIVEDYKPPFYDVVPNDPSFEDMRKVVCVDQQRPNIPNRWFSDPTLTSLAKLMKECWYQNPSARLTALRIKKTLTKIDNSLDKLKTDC
UniProt Q13976, 1-686 isoform Q13976-2: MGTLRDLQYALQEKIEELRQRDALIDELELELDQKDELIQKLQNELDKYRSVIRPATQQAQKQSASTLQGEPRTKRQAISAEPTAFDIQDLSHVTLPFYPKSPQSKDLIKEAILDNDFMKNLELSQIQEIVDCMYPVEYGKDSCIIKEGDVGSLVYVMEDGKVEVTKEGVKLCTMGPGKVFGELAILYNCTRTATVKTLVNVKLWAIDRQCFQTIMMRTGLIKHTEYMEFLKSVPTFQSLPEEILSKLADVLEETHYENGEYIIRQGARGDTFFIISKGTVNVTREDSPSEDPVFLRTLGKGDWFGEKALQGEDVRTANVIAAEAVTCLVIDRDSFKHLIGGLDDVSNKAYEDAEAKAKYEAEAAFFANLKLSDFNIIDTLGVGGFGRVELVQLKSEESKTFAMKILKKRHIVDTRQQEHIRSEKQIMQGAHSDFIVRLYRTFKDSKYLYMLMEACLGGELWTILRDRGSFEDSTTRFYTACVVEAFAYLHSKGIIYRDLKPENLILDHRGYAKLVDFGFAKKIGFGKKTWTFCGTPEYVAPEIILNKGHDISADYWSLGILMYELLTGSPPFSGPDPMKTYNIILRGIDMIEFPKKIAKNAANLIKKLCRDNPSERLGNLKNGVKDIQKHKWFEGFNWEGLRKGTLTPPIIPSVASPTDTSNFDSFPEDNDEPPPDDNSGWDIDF
UniProt Q86UX6: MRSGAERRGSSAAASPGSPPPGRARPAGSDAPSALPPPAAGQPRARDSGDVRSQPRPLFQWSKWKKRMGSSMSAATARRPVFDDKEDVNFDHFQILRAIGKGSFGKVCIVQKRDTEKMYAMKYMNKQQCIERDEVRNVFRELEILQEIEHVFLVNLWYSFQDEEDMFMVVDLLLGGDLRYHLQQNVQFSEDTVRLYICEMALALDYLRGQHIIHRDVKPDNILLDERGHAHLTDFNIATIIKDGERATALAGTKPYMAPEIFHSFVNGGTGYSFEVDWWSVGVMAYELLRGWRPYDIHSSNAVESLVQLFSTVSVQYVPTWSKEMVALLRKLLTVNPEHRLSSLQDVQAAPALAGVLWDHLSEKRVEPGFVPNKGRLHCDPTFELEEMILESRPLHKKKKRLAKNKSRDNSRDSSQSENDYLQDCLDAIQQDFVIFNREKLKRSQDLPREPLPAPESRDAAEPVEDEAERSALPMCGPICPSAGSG

Legend:
[1] = molecular target: MSSK1(h) (Homo sapiens, UniProt Q9UPE1); test: biochemical
[2] = molecular target: PKCepsilon(h) (Homo sapiens, UniProt Q02156); test: biochemical
[3] = molecular target: CK2alpha1(h) (Homo sapiens, UniProt P68400); test: biochemical
[4] = molecular target: Plk3(h) (Homo sapiens, UniProt Q9H4B4); test: biochemical
[5] = test system: 44 individual DUB targets
[6] = molecular target: BRK(h) (Homo sapiens, UniProt Q13882); test: biochemical
[7] = molecular target: IKKbeta(h) (Homo sapiens, UniProt O14920); test: biochemical
[8] = molecular target: ACTR2(h) (Homo sapiens, UniProt P27037); test: biochemical
[9] = molecular target: HIPK2(h) (Homo sapiens, UniProt Q9H2X6); test: biochemical
[10] = molecular target: VRK1(h) (Homo sapiens, UniProt Q99986); test: biochemical
[11] = molecular target: JAK2(h) (Homo sapiens, UniProt O60674); test: biochemical
[12] = molecular target: TYK2(h) (Homo sapiens, UniProt P29597); test: biochemical
[13] = molecular target: CaMKK2(h) (Homo sapiens, UniProt Q96RR4); test: biochemical
[14] = molecular target: eEF-2K(h) (Homo sapiens, UniProt O00418); test: biochemical
[15] = molecular target: LIMK1(h) (Homo sapiens, UniProt P53667); test: biochemical
[16] = molecular target: IRE1(h) (Homo sapiens, UniProt O75460); test: biochemical
[17] = molecular target: Cdc7/cyclinB1(h) (Homo sapiens, UniProt O00311); test: biochemical
[18] = molecular target: Endothelin ETB (Homo sapiens, UniProt P24530); test: biochemical; conditions: read-out: % Inh.
[19] = molecular target: FGFR1(h) (Homo sapiens, UniProt P11362); test: biochemical
[20] = molecular target: Histamine H1 (Homo sapiens, UniProt P35367); test: biochemical; conditions: read-out: % Inh.
[21] = molecular target: Insulin (Rattus norvegicus, UniProt P15127); test: biochemical; conditions: read-out: % Inh.
[22] = molecular target: Nitric Oxide Synthetase, Inducible (iNOS) (Homo sapiens, UniProt P35228); test: biochemical; conditions: read-out: % Inh.
[23] = molecular target: BAP1 (Homo sapiens, UniProt Q92560); test: biochemical; conditions: read-out: Activity (% Control)
[24] = molecular target: SAPK4(h) (Homo sapiens, UniProt O15264); test: biochemical
[25] = molecular target: TGFBR1(h) (Homo sapiens, UniProt P36897); test: biochemical
[26] = molecular target: MAK(h) (Homo sapiens, UniProt P20794); test: biochemical
[27] = molecular target: PKCbetaI(h) (Homo sapiens, UniProt P05771); test: biochemical
[28] = molecular target: MEK2(h) (Homo sapiens, UniProt P36507); test: biochemical
[29] = molecular target: CaMKIIalpha(h) (Homo sapiens, UniProt Q9UQM7); test: biochemical
[30] = test system: six cysteine proteases; conditions: all six cysteine proteases
[31] = molecular target: PAR-1Balpha(h) (Homo sapiens, UniProt Q7KZI7); test: biochemical
[32] = molecular target: ErbB4(h) (Homo sapiens, UniProt Q15303); test: biochemical
[33] = molecular target: Flt4(h) (Homo sapiens, UniProt P35916); test: biochemical
[34] = molecular target: MOK(h) (Homo sapiens, UniProt Q9UQ07); test: biochemical
[35] = molecular target: TTBK2(h) (Homo sapiens, UniProt Q6IQ55); test: biochemical
[36] = molecular target: AMSH-LP (Homo sapiens, UniProt Q96FJ0); test: biochemical; conditions: read-out: Activity (% Control)
[37] = molecular target: IR(h) (Homo sapiens, UniProt P06213); test: biochemical
[38] = molecular target: ALK2(h) (Homo sapiens, UniProt Q04771); test: biochemical
[39] = molecular target: PKG1beta(h) (Homo sapiens, UniProt Q13976); test: biochemical
[40] = molecular target: STK32C(h) (Homo sapiens, UniProt Q86UX6); test: biochemical
[41] = molecular target: PKBalpha(h) (Homo sapiens, UniProt P31749); test: biochemical
[42] = molecular target: B-Raf(h) (Homo sapiens, UniProt P15056); test: biochemical

Compound: CC(C)C[C@H](NC(=O)C1(C(F)(F)F)CCCCC1)C(=O)Nc1nnc(Cc2ccc(C#N)cc2)s1 [Compound 22, CC(C)C[C@H](NC(=O)C1(CCCCC1)C(F)(F)F)C(=O)Nc2nnc(Cc3ccc(cc3)C#N)s2]
- inhibition at 10 µM [1]: -2.83%
- inhibition at 10 µM [2]: -0.61%
- inhibition at 10 µM [3]: 4.27%
- inhibition at 10 µM [4]: -17.4%
- inhibition across various DUBs [5]: < 15%
- inhibition at 10 µM [6]: 7.88%
- inhibition at 10 µM [7]: 6.11%
- inhibition at 10 µM [8]: 6.16%
- inhibition at 10 µM [9]: 0.7%
- inhibition at 10 µM [10]: -1.15%
- inhibition at 10 µM [11]: -2.9%
- inhibition at 10 µM [12]: 10.7%
- inhibition at 10 µM [13]: 5.63%
- inhibition at 10 µM [14]: 1.23%
- inhibition at 10 µM [15]: 0.51%
- inhibition at 10 µM [16]: -7.86%
- inhibition at 10 µM [17]: 3.54%
- inhibition at 10 µM [18]: 29%
- inhibition at 10 µM [19]: 2.15%
- inhibition at 10 µM [20]: 5%
- inhibition at 10 µM [21]: -5%
- inhibition at 10 µM [22]: 0%
- remaining activity at 1 µM [23]: 100%
- remaining activity at 10 µM [23]: 92.4%
- inhibition at 10 µM [24]: 0.28%
- inhibition at 10 µM [25]: -2.34%
- inhibition at 10 µM [26]: -2.88%
- inhibition at 10 µM [27]: -1.7%
- inhibition at 10 µM [28]: 4.53%
- inhibition at 10 µM [29]: 0.18%
- IC50 [30]: > 20 µM
- inhibition at 10 µM [31]: 2.65%
- inhibition at 10 µM [32]: -3.69%
- inhibition at 10 µM [33]: -8.37%
- inhibition at 10 µM [34]: 14.9%
- inhibition at 10 µM [35]: -1.36%
- remaining activity at 1 µM [36]: 105%
- remaining activity at 10 µM [36]: 88%
- inhibition at 10 µM [37]: -7.1%
- inhibition at 10 µM [38]: 5.05%
- inhibition at 10 µM [39]: 3.46%
- inhibition at 10 µM [40]: 7.05%
- inhibition at 10 µM [41]: 4.46%
- inhibition at 10 µM [42]: -3.24%

Compound: CC(C)C[C@@H](NC(=O)C1(C(F)(F)F)CCCCC1)C(=O)Nc1nnc(Cc2ccc(C#N)cc2)s1 [Compound 21, N-[(1R)-1-[[5-[(4-Cyanophenyl)methyl]-1,3,4-thiadiazol-2-yl]carbamoyl]-3-methyl-butyl]-1-(trifluoromethyl)cyclohexanecarboxamide]
- inhibition at 10 µM [1]: 8.63%
- inhibition at 10 µM [2]: 21.1%
- inhibition at 10 µM [3]: 7.38%
- inhibition at 10 µM [4]: -8.23%
- inhibition across various DUBs [5]: < 15%
- inhibition at 10 µM [6]: 4.3%
- inhibition at 10 µM [7]: -4.66%
- inhibition at 10 µM [8]: 6.68%
- inhibition at 10 µM [9]: 11.5%
- inhibition at 10 µM [10]: 3.92%
- inhibition at 10 µM [11]: -3.89%
- inhibition at 10 µM [12]: 7.17%
- inhibition at 10 µM [13]: 3.81%
- inhibition at 10 µM [14]: -5.77%
- inhibition at 10 µM [15]: -2.38%
- inhibition at 10 µM [16]: -8.46%
- inhibition at 10 µM [17]: 6.32%
- inhibition at 10 µM [18]: 4%
- inhibition at 10 µM [19]: -3.5%
- inhibition at 10 µM [20]: -1%
- inhibition at 10 µM [21]: 10%
- inhibition at 10 µM [22]: -1%
- remaining activity at 1 µM [23]: 111%
- remaining activity at 10 µM [23]: 106%
- inhibition at 10 µM [24]: -2.62%
- inhibition at 10 µM [25]: 7.47%
- inhibition at 10 µM [26]: 2.05%
- inhibition at 10 µM [27]: -0.63%
- inhibition at 10 µM [28]: 5.61%
- inhibition at 10 µM [29]: -4.14%
- IC50 [30]: > 20 µM
- inhibition at 10 µM [31]: -8.98%
- inhibition at 10 µM [32]: -3.07%
- inhibition at 10 µM [33]: -10.5%
- inhibition at 10 µM [34]: 7.14%
- inhibition at 10 µM [35]: -10.1%
- remaining activity at 1 µM [36]: 96%
- remaining activity at 10 µM [36]: 101%
- inhibition at 10 µM [37]: -5.67%
- inhibition at 10 µM [38]: 4.53%
- inhibition at 10 µM [39]: 0.39%
- inhibition at 10 µM [40]: 2.45%
- inhibition at 10 µM [41]: 10.7%
- inhibition at 10 µM [42]: -7.19%
